Compound activity as filed in PubChem.
Rows were chosen to be rich in hits. Some 1.5% of all compounds tested hit in one or more screens of this group.
HIV Env fusion = blocks HIV Env-driven cell-cell fusion; HeLa-JRFL Env/CEM21 cell fusion, luciferase; inhibition, % at 12.3 µM; 360,000 compounds, 1.1% hits;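 active = mean replicate inhibition score of at least 50 and every replicate individually at or above 50; inconclusive = only one of the two criteria met; inactive = mean below 50 and not all replicates reaching 50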
miR122 inh = inhibitors of miR-122 in Huh7 cells | Huh7 miR-122 Renilla luciferase sensor, 48 h; neutral wells = 0, positive control = 100 | 340,000 compounds, 0.3% hits | activation (reporter increase), % at 12.5 µM;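 active = mean replicate activation score at least 90 and every replicate individually at or above 90; inconclusive = only one of the two criteria met; inactive = neither criterion met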;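 note: higher luciferase means less miR-122 activity so hits act as miR-122 inhibitors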
Cneo AK release = Cryptococcus neoformans lysis via adenylate kinase release. lysis activity, % at 15 µM. C. neoformans lysis, adenylate kinase release luminescence, 4 h; normalised: neutral wells 0, clomiphene wells 100. AID 651654. 360,000 compounds, 0.2% hits;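 active = mean lysis activity across replicates of at least 80%, whatever share of replicates individually reach that level; inactive = mean lysis activity below 80%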
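Signal: Adenylate kinase release luminescence | Assay system: Log-phase Cryptococcus neoformans yeast cells | Input: Cells at 5 × 10^6 per mL | Buffer or medium: Fresh YPD growth medium | Compound: Single dose | Schedule: Static 4 h at 37 °C with compound, 1 h detection | Controls: Clomiphene | Read-out: Luminescence rise reflecting yeast cell lysis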
FN deposit inh = fibronectin deposition inhibition | AH1F fibroblasts, Alexa488-fibronectin deposition fluorescence, overnight | inhibition, % at 12.6 µM | 350,000 compounds, 0.086% hits;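 active = mean inhibition across replicates of 30% or more, regardless of how many single replicates reach that level; inconclusive = mean under 30% yet at least half of replicates reach 30%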
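material = AH1F fibroblast monolayer depositing Alexa488-labelled fibronectin into matrix | amount = 10000 AH1F cells/well | buffer or medium = DMEM plus 2% serum, read in PBS | incubation = 1 h cell adhesion before compound, then overnight fibronectin incubation | detection = fluorescence at 485 nm excitation, 525 nm emission | evaluation = percent inhibition as loss of matrix-bound fibronectin fluorescence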
UUG fidelity = modulators of yeast start codon fidelity, primary screen, whole organism, S. cerevisiae, single point, plate reader; S. cerevisiae UUG-firefly luciferase reporter, luminescence/redox ratio; activity score, % at 18.7 µM; 0.13% of 350,000 active; AID 602363, 2012;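 active = replicate mean at a twofold rise or more, about +100% in these data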;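 also: firefly luciferase made from a UUG start codon reports start codon fidelity; reporter light over untreated wells divided by growth signal over untreated wells; some hits fall short of that in this replicate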
PGC1a acetyl inh = PGC1a acetylation modulation, inhibitor mode. U2OS PGC1a acetylation, AlphaScreen anti-acetyl-lysine; with virally co-expressed GCN5 acetyltransferase. inhibition, % at 15.6 µM. 350,000 compounds, 0.17% hits;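 active = every replicate shows inhibition of at least 40%; inconclusive = mean inhibition at least 40% but some replicate below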
Numbers stand for hits; - = inactive; ? = inconclusive; . = not tested or not shown; [ ] = another dose, or the depositor's remark.

SMILES | HIV Env fusion | miR122 inh | Cneo AK release | FN deposit inh | UUG fidelity | PGC1a acetyl inh
Cc1ccc(S(=O)(=O)Nc2ccc3c(c2)CC(=O)N([C@H](C)CO)C[C@@H](C)[C@@H](CN(C)S(=O)(=O)c2ccccc2)O3)cc1 | - | - | - | - | - | -
Cc1ccc(S(=O)(=O)N(C)C[C@@H]2Oc3ccc(NS(=O)(=O)c4ccccc4)cc3CC(=O)N([C@H](C)CO)C[C@H]2C)cc1 | - | - | - | . | - | -
Cc1ccc(S(=O)(=O)Nc2ccc3c(c2)CC(=O)N([C@@H](C)CO)C[C@H](C)[C@@H](CN(C)Cc2ccc(-c4ccccc4)cc2)O3)cc1 | 75[16.7 µM] | - | - | - | - | -
Cc1ccc(S(=O)(=O)Nc2ccc3c(c2)CC(=O)N([C@H](C)CO)C[C@H](C)[C@H](CN(C)S(=O)(=O)c2ccccc2)O3)cc1 | 80[16.7 µM] | - | - | - | - | -
Cc1ccc(S(=O)(=O)N(C)C[C@@H]2Oc3ccc(NS(=O)(=O)c4ccccc4)cc3CC(=O)N([C@H](C)CO)C[C@@H]2C)cc1 | 100[16.7 µM] | - | - | . | - | -
Cc1ccc(S(=O)(=O)Nc2ccc3c(c2)CC(=O)N([C@@H](C)CO)C[C@H](C)[C@H](CN(C)S(=O)(=O)c2ccccc2)O3)cc1 | 67[16.7 µM] | - | - | - | - | -
Cc1ccc(S(=O)(=O)Nc2ccc3c(c2)CC(=O)N([C@@H](C)CO)C[C@H](C)[C@H](CN(C)Cc2ccc(-c4ccccc4)cc2)O3)cc1 | - | - | - | - | - | -
COc1ccc(/C=N/NC(=O)c2nn(C)cc2Br)cc1CSCc1ccco1 | . | - | - | - | - | -
O=c1[nH]c(CCl)nc2cc(-c3ccc(F)cc3)sc12 | - | - | - | - | - | -
Cn1c(SCc2nc(-c3ccc(Cl)cc3)no2)nnc1-c1cccs1 | 83 | - | - | - | - | -
COc1ccc(C(C)=O)cc1CC1(C)C(=O)Nc2ccc(-c3ccccc3OC)cc21 (stereo not given) | 70 | - | - | - | - | .
COc1ccccc1-c1ccc2c(c1)C(C)(Cc1cccc(F)c1)C(=O)N2 (stereo not given) | 73 | - | - | - | - | .
COc1ccc(C(C)=O)cc1CC1(C)C(=O)Nc2ccc(OC(F)(F)F)cc21 (stereo not given) | - | - | - | - | - | -
CC(OC(=O)c1cc[n+]([O-])cc1)C(=O)NCc1ccccc1 (stereo not given) | - | . | - | - | - | .
CCOC(=O)NC(=S)Nc1cccc(C)n1 | - | - | - | - | - | .
CCOC(=O)NC(=S)Nc1ccc(C(C)(C)C)cc1 | - | - | 173 | - | - | -
O=C(CCCCn1c(=O)[nH]c2ccccc2c1=O)N1CCN(c2cccc(C(F)(F)F)c2)CC1 | 83 | - | - | - | - | -
COCc1[nH]nc2c1C(c1cccc(C(F)(F)F)c1)N(c1ccccc1)C2=O (stereo not given) | - | . | . | - | . | .
COC(=O)CN1C(c2cccc(Cl)c2)=Nc2ccc(Cl)cc2C1c1ccccc1 (stereo not given) | 56 | . | . | - | . | .
COc1cc(C=O)ccc1OCCCCOc1ccccc1[N+](=O)[O-] | - | . | . | - | . | .
CCc1nnc(N/N=C/c2cccs2)n1N | - | - | - | - | - | -
CCc1nnc(N/N=C/c2c(Cl)cccc2Cl)n1N | - | - | - | - | - | 64
CCCCCN1C=CC(=C2C(=O)c3ccccc3C2=O)C=C1 | 72 | - | . | - | . | -
Cc1noc(C)c1S(=O)(=O)N(C)C[C@H]1OCCCC[C@H](C)Oc2ccc(NS(C)(=O)=O)cc2C(=O)N([C@H](C)CO)C[C@H]1C | - | - | - | . | - | -
CSCC(=O)N1CCCC(CO)(Cc2ccccc2C)C1 (stereo not given) | - | - | . | . | . | 109
SMILES | HIV Env fusion | miR122 inh | Cneo AK release | FN deposit inh | UUG fidelity | PGC1a acetyl inh
O=C1c2cccnc2C(=O)N1CO | . | - | - | . | - | -
NC1=C(Br)C(=O)c2ncccc2C1=O | ? | - | . | - | . | 87
COc1ccccc1-c1nc(SCC(=O)Nc2ccccc2F)n[nH]1 | 70 | . | - | - | - | .
COc1ccccc1-c1nc(SCC(=O)Nc2ccccc2)n[nH]1 | - | . | - | - | - | .
O=C(c1cccc(S(=O)(=O)NCc2ccccc2)c1)N1CCN(c2cccc(C(F)(F)F)c2)CC1 | 61 | - | - | . | - | -
C[C@H](CO)N1C[C@H](C)[C@H](CN(C)Cc2ccc(C(=O)Nc3ccccc3N)cc2)Oc2ccc(NS(=O)(=O)c3cccs3)cc2CC1=O | - | 104[16.7 µM] | - | . | - | -
C[C@H](CO)N1C[C@H](C)[C@H](CN(C)Cc2ccc(C(=O)Nc3ccccc3N)cc2)Oc2ccc(NS(=O)(=O)c3ccccc3)cc2CC1=O | - | 145[16.7 µM] | - | . | - | -
C[C@@H]1CN([C@H](C)CO)C(=O)Cc2cc(NS(=O)(=O)c3cccs3)ccc2O[C@H]1CN(C)Cc1ccc(C(=O)Nc2ccccc2N)cc1 | . | . | . | . | . | -
C[C@H](CO)N1C[C@H](C)[C@@H](CN(C)Cc2ccc(C(=O)Nc3ccccc3N)cc2)Oc2ccc(NS(=O)(=O)c3ccc(F)cc3)cc2CC1=O | - | - | - | . | - | -
C[C@H](CO)N1C[C@H](C)[C@H](CN(C)Cc2ccc(C(=O)Nc3ccccc3N)cc2)Oc2ccc(NS(=O)(=O)c3ccc(F)cc3)cc2CC1=O | - | 162[16.7 µM] | - | . | - | -
COc1ccc(S(=O)(=O)Nc2ccc3c(c2)CC(=O)N([C@H](C)CO)C[C@H](C)[C@H](CN(C)Cc2ccc(C(=O)Nc4ccccc4N)cc2)O3)cc1 | - | 212[16.7 µM] | . | - | . | -
COc1ccc(NC(=O)CN2CCC(C(N)=O)(N3CCCCC3)CC2)cc1 | 77 | . | - | . | - | -
COc1ccc(NC(=O)CN2CCCCC2)cc1 | . | - | - | . | - | -
COCCCNC(=O)c1cccc2c(-c3ccc(OC)cc3C)coc12 | . | - | - | - | - | -
COc1ccc(CCNC(=O)CCCCC(=O)NCCc2ccc(OC)cc2)cc1 | - | - | - | - | - | -
COc1ccc(-c2coc3c(C(=O)NCCc4ccccc4)cccc23)c(C)c1 | 55 | - | - | - | - | -
COc1ccc(CCCC(=O)NCCc2ccccc2)c(C)c1 | 89 | . | - | - | - | .
Cc1cc(N/N=C/c2ccc(O)cc2O)nc(-n2nc(C)cc2C)n1 | 56 | - | - | - | - | -
CC(C)C(C)NC(=O)CSc1ccc(S(=O)(=O)N2CCOCC2)cn1 (stereo not given) | - | - | - | - | - | -
CC(NC(=O)CSc1ccc(S(=O)(=O)N2CCOCC2)cn1)c1ccc(Cl)cc1Cl (stereo not given) | . | - | - | 30 | - | -
COC(=O)c1c(-c2ccsc2)sc2ccc(-c3cc(OC)c(OC)c(OC)c3)cc12 | 59 | . | - | - | - | .
